Amino acid sequences for entries named in this document (tags omitted).
UniProt P30559, whole entry: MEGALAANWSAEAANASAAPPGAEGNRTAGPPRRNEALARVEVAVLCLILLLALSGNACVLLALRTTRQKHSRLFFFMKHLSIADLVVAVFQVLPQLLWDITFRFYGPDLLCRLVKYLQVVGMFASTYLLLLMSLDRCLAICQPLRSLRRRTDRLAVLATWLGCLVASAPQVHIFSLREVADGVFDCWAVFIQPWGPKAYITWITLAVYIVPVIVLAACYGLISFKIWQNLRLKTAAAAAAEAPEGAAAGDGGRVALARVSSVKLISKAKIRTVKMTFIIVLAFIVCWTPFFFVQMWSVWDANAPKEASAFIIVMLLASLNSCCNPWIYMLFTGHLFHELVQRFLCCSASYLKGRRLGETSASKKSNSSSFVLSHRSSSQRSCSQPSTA

Only a part is listed here, and it is no random draw. Some results for these compounds are left out of this collection, so the calls shown say nothing about other tests. Calls of active or inactive are those of the source.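 How the source made its calls: active means activation above the mean of all tested compounds plus 3 SD, cutoff set per screening run (cut at about 20% in these data); inactive means the rest.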
The molecules below were run against Oxytocin receptor (Homo sapiens) (UniProt P30559) (assay: human OXTR agonists, primary screen, fluorescence, CHO-OTR cells, Fluo-8 calcium (AID 2435;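 further: peak over basal fluorescence ratio from a 100 s FLIPR kinetic read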)). Settings: Fluo-8 calcium fluorescence, at 3 µM, hits give high values, normalized: DMSO 0%, oxytocin 100%.
With `Cc1cc(C(=O)NCC2(N3CCCCC3)CCCCC2)ccc1[N+](=O)[O-]` the activation was inactive: -0.54%. With `CCN1CCCC(OC(=O)C2(O)c3ccccc3C=Cc3ccccc32)C1` (centres undefined) the activation was inactive: 2.43%. In the case of `O=C(NCC1(N2CCCCC2)CCCCC1)c1cccc(Br)c1`, the activation is reported as inactive: -0.53%. For `COc1ccc(C(=O)NCC2(N(C)C)CCCCC2)cc1`, the activation was inactive: 1.09%. In the case of `C=CCN1CCN(CCOC(=O)C(O)(c2ccccc2)c2ccccc2)CC1`, the activation is reported as inactive: 0.79%. `O=C(NCC1(N2CCCCC2)CCCCC1)c1cc(F)c(F)cc1Cl` was tested, and the activation was inactive: 0.34%. With `Cc1ccccc1C(=O)NCC1(N2CCCCC2)CCCCC1` the activation was inactive: -0.42%. In the case of `CN(C)C1CCCC1OC(=O)C(O)(c1ccccc1)c1ccccc1` (centres undefined), the activation is reported as inactive: 1.12%. For `CN(C)c1ccc(C(=O)NCC2(N(C)C)CCCCC2)cc1`, the activation was inactive: 0.34%. In the case of `Cc1ccc(C(=O)NCC2(N3CCCCC3)CCCCC2)cc1`, the activation is reported as inactive: 0.59%. For `CC(C)N1C(=O)CC2(CCN(CCOC(=O)C(O)(c3ccccc3)c3ccccc3)CC2)C1=O`, the activation was inactive: -0.8%. For `CCN(CC)CC(C)C(C)OC(=O)C(O)(c1ccccc1)c1ccccc1` (centres undefined), the activation was inactive: -0.24%. `COc1cc(SC)ccc1C(=O)NCC1(N(C)C)CCCCC1` was tested, and the activation was inactive: -0.29%. `CN1[C@@H]2CC[C@H]1CC(OC(=O)C(O)(c1ccccc1)c1ccccc1)C2` (some centres undefined) was tested, and the activation was inactive: 0.92%. For `O=C(NCC1(N2CCCCC2)CCCCC1)c1cc([N+](=O)[O-])ccc1Cl`, the activation was inactive: -0.98%. For `CN(C)c1cccc(C(=O)NCC2(N(C)C)CCCCC2)c1`, the activation was inactive: 0.07%. With `CC(C)Oc1ccc(C(=O)NCC2(N(C)C)CCCCC2)cc1` the activation was inactive: 1.5%. In the case of `COc1ccc(Br)c(C(=O)NCC2(N3CCCCC3)CCCCC2)c1`, the activation is reported as inactive: -0.35%. For `O=C(OC1CN2CCC1CC2)C(CO)(c1ccccc1)c1ccccc1` (centres undefined), the activation was inactive: 1.21%. With `O=C(NCC1(N2CCCCC2)CCCCC1)c1cccc(Cl)c1` the activation was inactive: 1.18%. In the case of `COc1cccc(C(=O)NCC2(N3CCCCC3)CCCCC2)c1`, the activation is reported as inactive: -0.93%. `COc1ccc(Cl)cc1C(=O)NCC1(N(C)C)CCCCC1` was tested, and the activation was inactive: 1.48%. For `COc1cc(C(=O)NCC2(N(C)C)CCCCC2)c([N+](=O)[O-])cc1OC`, the activation was inactive: 0.26%. `CN(C)C1(CNC(=O)c2ccc(Br)cc2)CCCCC1` was tested, and the activation was inactive: -1.02%.

From PubChem BioAssay AID2435 (The Scripps Research Institute Molecular Screening Center, 2010)
